{
  "sequences": {"note": "Amino acid sequences for entries named in this document (tags omitted). A change or cut given only in a name is not applied to a line headed by its entry.", "UniProt P30994": "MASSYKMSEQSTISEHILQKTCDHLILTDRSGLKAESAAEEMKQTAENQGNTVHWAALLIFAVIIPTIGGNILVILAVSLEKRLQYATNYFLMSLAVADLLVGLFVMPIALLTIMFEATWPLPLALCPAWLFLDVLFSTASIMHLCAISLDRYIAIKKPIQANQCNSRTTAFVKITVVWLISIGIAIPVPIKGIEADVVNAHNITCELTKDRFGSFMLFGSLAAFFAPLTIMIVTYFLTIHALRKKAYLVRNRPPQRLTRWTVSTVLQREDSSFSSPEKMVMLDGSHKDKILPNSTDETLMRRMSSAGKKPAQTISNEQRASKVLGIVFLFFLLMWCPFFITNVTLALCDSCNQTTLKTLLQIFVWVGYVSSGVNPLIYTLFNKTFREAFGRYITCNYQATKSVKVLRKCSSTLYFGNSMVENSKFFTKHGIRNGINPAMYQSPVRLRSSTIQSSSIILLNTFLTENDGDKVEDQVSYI", "UniProt P08909": "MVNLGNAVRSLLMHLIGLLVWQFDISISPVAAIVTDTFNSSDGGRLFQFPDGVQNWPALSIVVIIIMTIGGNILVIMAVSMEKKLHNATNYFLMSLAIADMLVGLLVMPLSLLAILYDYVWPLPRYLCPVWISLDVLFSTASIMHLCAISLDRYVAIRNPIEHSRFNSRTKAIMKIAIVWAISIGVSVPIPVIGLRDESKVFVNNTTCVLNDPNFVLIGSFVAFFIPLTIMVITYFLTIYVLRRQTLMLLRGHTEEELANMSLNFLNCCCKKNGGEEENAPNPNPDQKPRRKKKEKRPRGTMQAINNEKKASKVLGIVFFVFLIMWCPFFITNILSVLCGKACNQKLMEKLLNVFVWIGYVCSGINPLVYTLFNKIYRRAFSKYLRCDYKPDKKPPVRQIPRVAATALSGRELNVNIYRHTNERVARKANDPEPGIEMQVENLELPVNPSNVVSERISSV", "UniProt P14842": "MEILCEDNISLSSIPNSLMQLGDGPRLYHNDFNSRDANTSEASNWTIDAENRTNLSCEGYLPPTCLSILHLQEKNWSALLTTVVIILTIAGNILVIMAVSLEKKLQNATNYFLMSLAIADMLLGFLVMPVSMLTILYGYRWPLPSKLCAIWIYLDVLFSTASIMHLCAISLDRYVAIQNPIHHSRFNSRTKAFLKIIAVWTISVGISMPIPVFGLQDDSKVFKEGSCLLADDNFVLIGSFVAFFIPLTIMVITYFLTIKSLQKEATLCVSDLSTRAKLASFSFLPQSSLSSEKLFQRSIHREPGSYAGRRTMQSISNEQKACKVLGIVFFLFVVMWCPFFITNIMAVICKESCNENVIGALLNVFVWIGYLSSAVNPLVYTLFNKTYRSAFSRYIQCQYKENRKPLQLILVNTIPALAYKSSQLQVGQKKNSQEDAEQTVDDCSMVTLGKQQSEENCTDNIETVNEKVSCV"},
  "source": "ChEMBL document CHEMBL1125181",
  "about": "“Naphthosultam derivatives: a new class of potent and selective 5-HT2 antagonists” (J Med Chem, 1991)",
  "key": {"[1]": {"target": "T1, Serotonin 2 (5-HT2) receptor (Rattus norvegicus, UniProt P30994+P08909+P14842)", "experiment": "Binding constant against 5-hydroxytryptamine 2 receptor (in vitro)", "format": "protein assay"}, "[2]": {"target": "T1, Serotonin 2 (5-HT2) receptor", "experiment": "The concentration required to inhibit [3H]ketanserin binding to 5-hydroxytryptamine 2 receptor in rat brain membranes (in vitro)", "format": "cell membranes", "how_it_was_run": "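Male Sprague-Dawley rat cortical membranes (0.15 mg/mL protein) in Tris-HCl pH 7.6 with BSA 2 mg/mL. Incubated 15 min at 37 °C with compound and [3H]ketanserin (final 0.4 nM). Nonspecific binding from 10⁻⁶ M methysergide. Filtration and scintillation counting. IC50 by nonlinear regression; mean of at least 2 runs, 6 concentrations in triplicate.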"}},
  "data": [
    {"smiles": "Cc1nc2sccn2c(=O)c1CCN1CCC(=C(c2ccc(F)cc2)c2ccc(F)cc2)CC1", "note": "[RITANSERIN]", "values": [
      {"measurement": "Ki", "setting": "[1]", "value": 0.69, "unit": "nM"},
      {"measurement": "IC50", "setting": "[2]", "value": 1.7, "unit": "nM"}
    ]}
  ]
}
